Target: Bromodomain testis-specific protein (Homo sapiens, UniProt Q58F21)
Test: biochemical
Assay type: cell-based

Kd: 3.42 µM
SMILES: Oc1ccc(-c2nc(-c3ccncc3)c(-c3ccc(F)cc3)[nH]2)cc1 [SB-202190]

From ChEMBL document CHEMBL5252533, “Dual Kinase-Bromodomain Inhibitors in Anticancer Drug Discovery: A Structural and Pharmacological Perspective” (J Med Chem, 2016)
